Results reported in article PMC7101311, “Structural basis for the increased processivity of D-family DNA polymerases in complex with PCNA” (Nature Communications, 2020).

B1: cPIP peptide (12 amino-acid peptide mimicking the DP2 C-terminal PIP-box) (peptide)
peptide: KKRVISLEEFFS
notes: C-terminal PIP-box (cPIP) of PolD DP2, Pyrococcus abyssi; limits worked out from the printed residues V1258, I1259, L1261, F1264; also called canonical PIP-box; source: synthetic peptide (Smart Bioscience)
B2: MBP–iPIP-cPIP fusion (DP2:1196–1270) (domain or fragment, Pyrococcus abyssi, UniProt Q9V2F4 1381-1455, looked up)
chain: ETQLTLIVNPNDICQRLVMARTGEVNKSGLLENLSNGSKKTEKAEKAEKPRKKSDEKPKKKRVISLEEFFSRKSK
notes: C-terminal region of PolD DP2, Pyrococcus abyssi, residues 1196-1270, holding iPIP and cPIP; pIVEX His-MBP-TEV plasmid; TEV-cleavable N-terminal His6-MBP tag, kept for capture on Ni-NTA biosensors; also called His-MBP-fused DP2 construct; source: E. coli BL21-CodonPlus (DE3)-RIPL, purified (HisTrap, heparin, size exclusion; no heat step); not shown: His6, N-terminal, kept; MBP, N-terminal, kept

Experiments:
[1] = target: T1, His-tagged DNA primase PriS-PriL(1–210) from Pyrococcus abyssi (Pyrococcus abyssi, UniProt Q9V292 1-345; Q9V291 1-210); assay: SPR; Biacore T200; ~2000 RU His-tagged PCNA and PriS-PriL(1–210) on an NTA chip, His-tagged MBP as reference; cPIP peptide 0-200 µM, 30 s at 30 µL/min, 25 °C, buffer E with 100 µM EDTA; steady-state fit; details: both partners purified
T1 construct: DNA primase small subunit PriS, Pyrococcus abyssi; open reading frame optimized and synthesized; DNA primase large subunit PriL, Pyrococcus abyssi, residues 1-210; The methods give a His14 tag on PriS; also called His6-tagged primase; immobilized primase; source: E. coli BL21-CodonPlus (DE3)-RIPL, polycistronic construct, purified (heat step, HisTrap, heparin, size exclusion); not shown: His14, …
T1 sequence (looked up) 1: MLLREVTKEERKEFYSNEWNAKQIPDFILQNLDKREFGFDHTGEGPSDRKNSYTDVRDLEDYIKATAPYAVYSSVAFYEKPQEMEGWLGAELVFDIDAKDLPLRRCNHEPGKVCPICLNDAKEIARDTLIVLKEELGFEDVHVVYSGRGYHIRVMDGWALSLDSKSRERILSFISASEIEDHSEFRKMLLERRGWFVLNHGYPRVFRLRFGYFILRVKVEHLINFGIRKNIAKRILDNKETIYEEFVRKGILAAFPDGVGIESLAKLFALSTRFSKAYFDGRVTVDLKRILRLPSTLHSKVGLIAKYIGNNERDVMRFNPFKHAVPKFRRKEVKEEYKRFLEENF
T1 sequence (looked up) 2: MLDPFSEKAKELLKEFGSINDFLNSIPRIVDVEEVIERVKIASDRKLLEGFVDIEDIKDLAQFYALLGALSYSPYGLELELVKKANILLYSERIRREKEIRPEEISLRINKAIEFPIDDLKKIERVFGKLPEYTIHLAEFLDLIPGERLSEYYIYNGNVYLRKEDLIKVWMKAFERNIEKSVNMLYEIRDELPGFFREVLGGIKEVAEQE

[2] = target: T2, DNA primase PriS-PriL(1–210) from Pyrococcus abyssi (Pyrococcus abyssi, UniProt Q9V292 1-345; Q9V291 1-210); assay: BLI; Octet RED384; His-MBP-fused DP2 constructs captured on Ni-NTA biosensors (1.5 nm); PCNA or PriS-PriL(1–210) 31.25-2000 nM, 300 s, 25 °C, buffer E (20 mM Na-Hepes pH 8, 0.15 M NaCl) with 0.2 mg/mL BSA; steady-state fit; details: both partners purified
T2 construct: DNA primase small subunit PriS, Pyrococcus abyssi; open reading frame optimized and synthesized; DNA primase large subunit PriL, Pyrococcus abyssi, residues 1-210; Analyte in BLI; source: E. coli BL21-CodonPlus (DE3)-RIPL, polycistronic construct, purified (heat step, HisTrap, heparin, size exclusion)
T2 sequence (looked up) 1: T1 sequence (looked up) 1
T2 sequence (looked up) 2: T1 sequence (looked up) 2

Binder | Kd [1] [nM] | Kd [2] [nM]
B1 | 4000 ± 1000 | –
B2 | – | 237 ± 22
